Measurements taken from patent US20100267765A1, “Pharmaceutical Compositions and Methods for CCR5 Antagonists” (priority 2007, published 2010).

Tests used:
Type in all cases: in vivo, human
LDL cholesterol = assay: MERIT study: on-treatment fasting LDL cholesterol vs NCEP cutpoints; details: with Combivir
Description: (§1) The MERIT study design included a fasting metabolic assessment at baseline and at Weeks 24 and 48 or at early study discontinuation, to evaluate the fasted lipid values in the MERIT study and their potential effect on cardiovascular risk.
(§2) For a 50% smoking rate scenario (which approximates to the smoking rate seen in the DAD Study-Friis-Møller N, et al. N Engl J Med 2003; 349:1993-2003), smoking status (yes/no) was randomly imputed to the study population 500 times, by sampling from a binomial distribution with a probability of success of 0.5. Smoking status was assumed to remain constant for the duration of the study.

fasting lipid parameters = assay: MERIT study: fasting lipoprotein profile (total cholesterol, HDL, LDL, triglycerides); details: maraviroc+Combivir, 48 weeks
Description: as §1, §2

[1] = MERIT study: 10-year coronary heart disease risk by Framingham equation; details: with Combivir
Description: as §2

[2] = patients already above threshold at baseline excluded, P<0.0001

(N-{(1S)-3-[3-isopropyl-5-methyl-4H-1,2,4-triazole-4-yl]-exo-8-azabicyclo[3.2.1]oct-8-yl}-1-phenylpropyl)-4,4-difluorocyclohexanecarboxamide) [maraviroc]
Number of patients who initiated LDL-lowering therapy during the study (LDL cholesterol): three | Relation of change in LDL cholesterol to baseline LDL cholesterol (LDL cholesterol; FIG. 2b): inversely related | Patients with high on-treatment LDL cholesterol level (≧160 mg/dL) at both Week 24 and Week 48 (%) (LDL cholesterol; P=0.007): 0.3% | Patients with high on-treatment LDL cholesterol level (≧160 mg/dL) at both Week 24 and Week 48 (n/N) (LDL cholesterol; P=0.007): 1/336 | Patients who developed LDL cholesterol levels during the study that were ≧160 mg/dL (%) (LDL cholesterol; [2]): 0.9% | Patients who developed LDL cholesterol levels during the study that were ≧160 mg/dL (n/N) (LDL cholesterol; [2]): 3/336 | Impact on lipid profiles (fasting lipid parameters): no negative impact on lipid profiles | Absolute CHD 10-year risk (mean [SD]) ([1]; Week 24, simulated smoking rate 50%): 2.1% | Absolute CHD 10-year risk (mean [SD]) ([1]; Week 48, simulated smoking rate 50%): 2.2%
